Test results from patent US20240059694A1, “COMPOUND CONTAINING 1,3-BENZODIOXOL STRUCTURE AND PREPARATION METHOD AND USE THEREOF” (priority 2021, published 2024).

Amino acid sequences for entries named in this document (tags omitted). A change or cut given only in a name is not applied to a line headed by its entry.
UniProt P52333: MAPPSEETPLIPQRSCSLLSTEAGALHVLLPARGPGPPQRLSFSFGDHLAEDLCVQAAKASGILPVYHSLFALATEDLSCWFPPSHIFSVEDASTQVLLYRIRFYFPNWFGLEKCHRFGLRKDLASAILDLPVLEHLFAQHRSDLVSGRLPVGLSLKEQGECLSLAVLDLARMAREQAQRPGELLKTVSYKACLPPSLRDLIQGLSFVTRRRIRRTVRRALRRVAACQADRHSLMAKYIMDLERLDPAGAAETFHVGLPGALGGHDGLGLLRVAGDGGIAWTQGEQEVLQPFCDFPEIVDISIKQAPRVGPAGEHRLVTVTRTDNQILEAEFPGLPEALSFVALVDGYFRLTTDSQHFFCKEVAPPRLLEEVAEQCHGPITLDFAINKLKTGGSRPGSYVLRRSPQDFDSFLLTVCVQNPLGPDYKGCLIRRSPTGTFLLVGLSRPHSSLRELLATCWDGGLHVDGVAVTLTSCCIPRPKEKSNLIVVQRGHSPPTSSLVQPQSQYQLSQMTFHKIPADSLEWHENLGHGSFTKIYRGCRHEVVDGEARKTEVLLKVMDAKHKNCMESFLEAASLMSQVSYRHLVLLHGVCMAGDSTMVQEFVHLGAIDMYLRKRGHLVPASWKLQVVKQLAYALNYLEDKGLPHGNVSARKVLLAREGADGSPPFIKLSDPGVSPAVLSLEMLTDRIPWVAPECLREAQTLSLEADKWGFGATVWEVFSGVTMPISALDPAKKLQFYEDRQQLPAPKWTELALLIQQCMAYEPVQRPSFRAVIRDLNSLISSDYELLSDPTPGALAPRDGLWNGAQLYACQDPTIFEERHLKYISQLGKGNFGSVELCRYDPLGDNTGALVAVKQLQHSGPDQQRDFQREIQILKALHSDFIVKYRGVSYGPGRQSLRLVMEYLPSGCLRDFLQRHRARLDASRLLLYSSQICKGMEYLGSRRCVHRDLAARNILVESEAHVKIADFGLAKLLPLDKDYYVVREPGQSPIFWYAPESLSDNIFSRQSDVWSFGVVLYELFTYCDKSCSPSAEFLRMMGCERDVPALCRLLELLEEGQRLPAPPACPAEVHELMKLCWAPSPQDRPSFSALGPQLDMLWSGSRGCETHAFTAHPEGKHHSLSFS

Molecular target: JAK3 (Homo sapiens (Human), UniProt P52333)
Assay: JAK3 kinase inhibitory activity experiment (Caliper EZ reader conversion rate)
Type: biochemical
Settings: in vitro kinase assay, 30 min incubation; class key in μM
Protocol: Experimental method: The 384-well plate was divided into compound wells (starting at 10 μM, diluted three times to produce 10 concentrations), positive control wells and negative control wells; kinase solution was added to compound wells and positive control wells, and 1×kinase buffer was added to negative control wells; the solution is next centrifuged for 30 seconds and incubated at room temperature for 10 min. Add 15 μL of the mixed solution of ATP and substrate, shake and mix well after centrifugation and incubate at room temperature (30 min for JAK3, 20 min for BTK). Add stop detection solution to stop the reaction, and read the conversion rate with Caliper EZ reader, Data analysis: The formula is as follows: […]
where Conversion %_sample is the conversion rate reading of the sample Conversion %_min is the average value of the negative control wells representing the conversion rate reading of the wells without enzyme addition; and Conversion %_max is the average value of the positive control wells representing the conversion rate reading of the wells without adding the compound. […]

## (R)-N^1-(7-(1-(1-acryloylpiperidin-3-yl)-4-amino-1H-pyrazolo[3,4-d]pyrimidin-3-)benzo[d][1,3]dioxo heterocyclopenten-4)-N^3-(2,2,2-trifluoroethyl)isophthalamide [I-8]
  IC50: 0.05 to 0.5 µM
